From the NIST ThermoML archive (doi:10.1016/j.jct.2011.04.006)

Settings: 298.15 K; 101.33 kPa; Liquid; Vibrating tube method

CCCCOCCCC [dibutyl ether]
mass density: 763.806 ± 0.13 kg/m3

± gives the expanded uncertainty stated by the source.
